# Reference: US20220322671A1, “METHODS TO REDUCE CONTAMINATION, BIOFILM AND FOULING FROM WATER SYSTEMS, SURFACES, AND PRODUCTS” (Aequor, Inc., priority 2019, published 2022)
# Test system: L. fermentum (ATCC 9338)
# Assay: MIC broth microdilution, L. fermentum
# Type: cell-based, Lactobacillus fermentum
smiles,measurement,value
CCCCCCCCCCCCOS(=O)(=O)c1ccccc1.[Na],"Minimum Inhibitory Concentration (MIC) (% v/v) M07-09 Method, L. fermentum",0.0075 % v/v
